The record followed here is PubChem BioAssay AID651725 (National Center for Advancing Translational Sciences (NCATS), 2012).

Sequences of proteins named here, by UniProt entry; tags and fusion partners are left off.
UniProt Q15475, whole entry: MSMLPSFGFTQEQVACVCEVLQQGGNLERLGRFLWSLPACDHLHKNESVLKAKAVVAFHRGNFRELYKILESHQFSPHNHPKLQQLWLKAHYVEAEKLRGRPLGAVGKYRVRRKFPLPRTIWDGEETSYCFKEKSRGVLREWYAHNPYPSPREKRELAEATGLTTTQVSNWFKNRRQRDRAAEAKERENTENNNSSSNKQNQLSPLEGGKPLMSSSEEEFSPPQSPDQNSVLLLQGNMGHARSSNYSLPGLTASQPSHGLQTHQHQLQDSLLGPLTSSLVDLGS

Structures are written as SMILES. Only a part is listed here, and it is no random draw. Calls of active or inactive are those of the source. Rule as the data show it: active = activity change below about -65%; inconclusive = mostly about -30% to -63%; inactive = weaker than that.
% is scaled to controls: 0 for no effect and ±100 for the full control effect.

The target of the assay is Homeobox protein SIX1 (Homo sapiens) + Protein phosphatase EYA2 (Homo sapiens) (UniProt Q15475+O00167). The assay can be described thus: qHTS Assay for Inhibitors of the Six1/Eya2 Interaction. The conditions noted are these: AlphaScreen GST-Six1/His-Eya2 binding, biochemical; stronger effect = lower value. An excerpt: Its expression is low or undetectable in normal adult breast tissue but the gene is over-expressed in 50% of primary breast tumors and 90% of metastatic lesions. […] Similar to Six1, Eya2 is also not expressed in most normal adult tissues, but is reexpressed in cancers. The Six1-Eya interaction is essential for proliferation during embryonic development, and both Six1 and Eya2 have been independently implicated in the same types of cancer. Because Six1 and Eya2 are embryonic genes with little expression in adult tissues, inhibitors of their expression/activity are likely to have limited side effects. Our goal is to identify inhibitors of the Six1/Eya interaction for potential cancer therapy. To this end, we have developed a homogenous AlphaScreen assay targeting the Six1/Eya interaction. We performed a large scale HTS of the Molecular Libraries Small Molecule Repository (MLSMR) to identify inhibitors of the Six1/Eya interaction as potential anti-cancer therapeutics. Compounds identified can also be used as chemical probes to better understand the biological functions of Six1 and Eya. NIH Chemical Genomics Center [NCGC] NIH Molecular Libraries Probe Centers Network [MLPCN] MLPCN Grant: DA033147 Assay Submitter (PI): Rui Zhao, University of Colorado Denver
The first step of the 5 uL AlphaScreen assay is to dispense assay buffer (50 mM Tris, pH 8.0, 300 mM NaCl, 0.05% BSA, 0.02% Tween 20, 1 mM TCEP) into a Greiner 1536 white solid bottom microtiter plate (789175-F). Five microliters is added to Column 1, 4 uL is added to Column 2 and 3 uL is added to Columns 3 through 48. A 5X protein solution (250 nM GST-Six1 protein + 500 nM His-tagged Eya2 protein) is mixed and 1 uL is dispensed to Columns 3-48. Using a 1536 pintool, 23 nL of compound is transferred to the assay plate. A solution of 5X AlphaScreen beads is mixed (50 ug/mL Glutathione linked donor beads + Nickel chelated acceptor beads) and 1 uL is dispensed to Columns 2-48. The assay plate is incubated for one hour, with a lid, at 37 deg C in the dark. The plate is read using a Perkin Elmer Envision using an AlphaScreen protocol.
(qHTS replaces the single test concentration by a dilution series.)
Consider `COc1ccc(N)c([N+](=O)[O-])c1[N+](=O)[O-]`, for which the activity change is inactive: -8.93%. `COc1ccc(OP(C)(=O)Nc2cccc(Br)c2)cc1` (centres undefined): the activity change is inactive: 2.21%. The figure for `O=P(Nc1ccccn1)(c1ccc(Br)cc1)c1ccc(Br)cc1` is inactive: 7.54%; for `CN(C)C1(CNC(=O)c2ccc(Cl)c(S(N)(=O)=O)c2)CCCCC1` it is inactive: 3.07%; for `C[C@H]1OP(=O)(Oc2ccccc2)[C@H](O)[C@H](O)[C@H]1N=[N+]=[N-]` (some centres undefined) it is inactive: -3.55%. To `CN(C)CCOC(=O)C(O)(c1ccccc1)C1CCCCC1` (centres undefined) belongs inactive: 0.699%. To `O=P(Nc1nc2ccccc2s1)(c1ccccc1)c1ccccc1` belongs inactive: 5.73%; to `COc1ccc(NP(C)(=O)Oc2ccccc2OC)cc1` (centres undefined), inactive: 6.65%. As for `O=[N+]([O-])c1ccc(O)c(/C=N/Nc2ccc([N+](=O)[O-])cc2[N+](=O)[O-])c1`, the activity change is inactive: -9.16%. The figure for `O=[N+]([O-])c1ccc(OP2(=O)COCCO2)cc1` (centres undefined) is inactive: 0.994%; for `CC(=O)NC(SC(=S)N(C)C)C(Cl)(Cl)Cl` (centres undefined) it is inactive: 1.92%. Turning to `O=[N+]([O-])c1ncn(CCn2cnc([N+](=O)[O-])n2)n1`, the activity change was inactive: 1.33%. To `Cc1cc(-c2cccc3ccccc23)c(C)cn1.O=[N+]([O-])c1cc([N+](=O)[O-])c(O)c([N+](=O)[O-])c1` belongs inactive: -5.31%. To `O=[As](O)(c1ccccc1)c1ccc(O)cc1` belongs inactive: 2%. In the case of `C(Cc1nn[nH]n1)Cc1nn[nH]n1`, the activity change was inactive: 7.08%.

On to `Nc1ccc([As](=O)(O)c2ccc([N+](=O)[O-])cc2)cc1`, for which the activity change was inactive: 6.77%. With `Cc1c(C(c2ccc3c(c2)OCO3)c2c(C)n(C)n(-c3ccccc3)c2=O)c(=O)n(-c2ccccc2)n1C.O=[N+]([O-])c1cc([N+](=O)[O-])c(O)c([N+](=O)[O-])c1`, the activity change was inactive: 0.25%. As to `O=C(OC1CN2CCC1CC2)c1cccc(Cl)c1` (centres undefined), the activity change is inactive: -0.738%. The figure for `CP(=O)(Nc1ccc(SC(F)(F)F)cc1)Oc1ccc(F)cc1` (centres undefined) is inactive: 5.19%; for `CC(C)C(=O)NC(Sc1ccccc1)C(Cl)(Cl)Cl` (centres undefined) it is inactive: 8.24%; for `O=P(Nc1nccs1)(c1ccccc1)c1ccccc1` it is inactive: 1.67%.

For the molecule `CCOP(C)(=S)SCC(=O)NC(C)(CC)C(=O)O` (centres undefined), the activity change is inactive: 8.7%.

In the case of `c1nnnn1CCn1cnnn1`, the activity change is inactive: 0.356%.

With `CP(=O)(Nc1ccc2c(c1)OCCO2)Oc1ccccc1` (centres undefined), the activity change is inactive: -15.4%. The figure for `Cc1ccccc1NP(C)(=O)Nc1ccccc1C` is inactive: -2.06%; for `O=[N+]([O-])c1cc([N+](=O)[O-])c(C(F)(F)F)c([N+](=O)[O-])c1O` it is inactive: -3.96%.

With `CCOc1ccc(C2=NCC(CBr)S2)cc1` (centres undefined), the activity change is inactive: 5.13%. To `O=P1(Nc2nc3ccc(Cl)cc3s2)COc2ccccc2O1` (centres undefined) belongs inactive: -0.0943%; to `CP(=O)(Nc1ccccc1F)Oc1ccccc1` (centres undefined), inactive: 17.7%.

Consider `CCc1cc(O)c([N+](=O)[O-])c(C)c1[N+](=O)[O-]`, for which the activity change was inactive: 1.52%. The figure for `CC(C)c1ccc(OP(C)(=O)Nc2ccc(SC(F)(F)F)cc2)cc1` (centres undefined) is inactive: 1.13%; for `CC(C)(C)C(=O)NC(Sc1ccccc1)C(Cl)(Cl)Cl` (centres undefined) it is inactive: 11.3%; for `COC(=O)C1(C)COP(=O)(NCc2ccccc2)OC1` (centres undefined) it is inactive: 6.17%. Regarding `CC(=O)c1ccc(N2CC2c2ccncc2)cc1` (centres undefined), the activity change was inactive: 2.91%. Turning to `N#C/C(=C\c1ccc(N(CCBr)CCBr)cc1)C(N)=O`, the activity change is inactive: -13.3%.

As to `C[C@H]1OP(=O)(Oc2ccccc2)C[C@@H]2O[C@@H]21` (some centres undefined), the activity change is inactive: 1.56%. The figure for `C[C@@H]1C=CCP(=O)(Oc2ccccc2)O1` (some centres undefined) is inactive: 3.55%; for `Cc1ccccc1CN(C)C(=O)COC(=O)C(O)(c1ccccc1)c1ccccc1` it is inactive: 9.3%. The figure for `O=C(OCCN1CCN(CCOCc2ccccc2)CC1)C(O)(c1ccccc1)c1ccccc1` is inactive: 6.72%. The figure for `CC(=O)Nc1ccc(Oc2c([N+](=O)[O-])cc([N+](=O)[O-])cc2[N+](=O)[O-])cc1` is inactive: -5.56%; for `CC(=O)Nc1ccc([As](=O)(O)O)c(O)c1` it is inactive: 6.66%.

`CCNC(=S)/N=C(\N)N[N+](=O)[O-]`: the activity change was inactive: -0.0791%. The figure for `O=C(NC1CCS(=O)(=O)C1)NP(=S)(Oc1ccccc1)Oc1ccccc1` (centres undefined) is inactive: 4.3%. With `Cc1ccc(NP(=O)(Oc2cccc(C)c2)Oc2cccc(C)c2)nc1`, the activity change was inactive: 4.41%. To `CCOC(=O)c1ccc(NP(C)(=O)Oc2ccc(F)cc2)cc1` (centres undefined) belongs inactive: -5.17%. To `O=P1(N(CCCl)CCCl)OCCC2CCCCN21` (centres undefined) belongs inactive: 0.208%; to `COc1ccc(OP(C)(=O)Nc2ccc(SC(F)(F)F)cc2)cc1` (centres undefined), inactive: -4.1%. The figure for `CC(=O)NC(SC(=S)N(CC(C)C)CC(C)C)C(Cl)(Cl)Cl` (centres undefined) is inactive: -11.9%. Take `Cc1ccc(OP(=O)(Nc2ccccn2)Oc2ccc(C)cc2)cc1`: the activity change was inactive: 2.36%. To `Cc1c([N+](=O)[O-])cc([N+](=O)[O-])c(Br)c1[N+](=O)[O-]` belongs inactive: 3.34%; to `COC(=O)c1cc2c(s1)N=C(c1ccccc1)N(C)P2(=O)N1CCOCC1` (centres undefined), inactive: 1.48%. For `CCN(CC)CCCOC(=O)C(O)(c1ccccc1)C1CCCCC1` (centres undefined), the activity change was inactive: 0.171%. The figure for `CCC(=O)N1C2C3N(C(=O)CC)C1C1N(C(=O)CC)C(C(N1C(=O)CC)N3C(=O)CC)N2C(=O)CC` is inactive: -3.06%.

On to `O=C(OC1CN2CCC1CC2)c1ccccc1` (centres undefined), for which the activity change was inactive: -15.6%. Turning to `CP(=O)(Nc1ccccc1)Oc1ccc(F)cc1` (centres undefined), the activity change was inactive: 0.168%. To `CCCCCOc1ccc(NP(C)(=O)Oc2ccc(Cl)cc2Cl)cc1` (centres undefined) belongs inactive: -14.4%; to `O=c1c2cc([N+](=O)[O-])ccc2[nH]c2c([N+](=O)[O-])cc([N+](=O)[O-])cc12`, inactive: 0.242%; to `CN(C)C(=O)Oc1noc2ccccc12`, inactive: 8.8%. To `CC(NC(=O)COC(=O)C(O)(c1ccccc1)c1ccccc1)c1ccccc1` (centres undefined) belongs inactive: 0.262%; to `Cc1ccccc1OP(=O)(Nc1ccccn1)Oc1ccccc1C`, inactive: -24.7%.

Consider `CCCC1OP(N)(=O)OCC1CC` (centres undefined), for which the activity change was inactive: 4.16%. As to `CC(=O)Nc1ccc([As](=O)(O)O)cc1`, the activity change is inactive: -6.65%. The figure for `O=C(O)c1ccccc1[As](=O)(O)O` is inactive: 0.27%. In the case of `O=P(Nc1nc2ccc(Cl)cc2s1)(c1ccccc1)c1ccccc1`, the activity change was inactive: 0.513%. For `Cc1cc(C)cc(OP(C)(=O)Nc2cccc(C(F)(F)F)c2)c1` (centres undefined), the activity change is inactive: -0.751%. To `CN(C)P(=O)(N(C)C)n1c(Nc2ccccc2)nnc1-c1ccccc1` belongs inactive: -0.84%; to `COc1ccccc1OP(C)(=O)Nc1ccc(C)c(C)c1` (centres undefined), inactive: 5.11%. The figure for `Cc1ccc(NP(=O)(Oc2ccccc2F)Oc2ccccc2F)nc1` is inactive: 1.84%; for `CN(C(=O)Cc1ccc(Cl)c(Cl)c1)[C@H]1CCCC[C@@H]1N1CCCC1` it is inactive: -3.82%.

In the case of `Cc1cc(SC(NC(=O)c2ccc(F)cc2)C(Cl)(Cl)Cl)ncn1` (centres undefined), the activity change is inactive: 13.7%. Take `CCOP(=O)(Nc1ccccc1)OCC`: the activity change was inactive: -3.61%. For the molecule `COc1ccc(OP(C)(=O)Nc2ccccc2Br)cc1` (centres undefined), the activity change was inactive: 1.53%. In the case of `CCN(N=Nc1nonc1N)c1nonc1N`, the activity change was inactive: 11.4%. The figure for `CP(=O)(Nc1ccc(Cl)cc1Cl)Oc1ccccc1` (centres undefined) is inactive: 0.81%. To `CCCCCCCCCCCCCCCC1C[N+](C)(C)CCOP(C)(=O)O1` (centres undefined) belongs inactive: 11.6%; to `CP(=O)(OCCOc1ccccc1)OCCOc1ccccc1`, inactive: 0.203%; to `Nc1cccc2ccc([As](=O)(O)O)cc12`, inactive: -4.73%. The figure for `NC(=O)c1cc([N+](=O)[O-])cc([N+](=O)[O-])c1N` is inactive: 1.66%. For the molecule `Cc1ccc(N/C(=N/P(=O)(N2CCOCC2)N2CCOCC2)N2CCOCC2)cc1`, the activity change was inactive: 32.7%. To `CN(C(=O)Cc1ccc(Cl)c(Cl)c1)[C@H]1CCCC[C@H]1N1CCCC1` belongs inactive: 5.52%; to `COc1ccccc1OP(C)(=O)Nc1ccc(Br)cc1` (centres undefined), inactive: -0.477%; to `Cc1ccc(OP(=O)(Nc2nccs2)Oc2ccc(C)cc2)cc1`, inactive: 0.972%.

With `COc1ccccc1OP(=O)(Nc1ccc(C)cn1)Oc1ccccc1OC`, the activity change is inactive: 5.18%.

On to `COc1ccc(OP(C)(=O)Nc2ccccn2)cc1` (centres undefined), for which the activity change is inactive: 14.9%. The figure for `CN1CCCC(OC(=O)C(c2ccccc2)c2ccccc2)C1` (centres undefined) is inactive: -24.5%; for `Clc1ccc(Cl)c(NC2=NCC(CBr)S2)c1` (centres undefined) it is inactive: 4.71%.

Regarding `CN(C)CCOC(=O)C(O)(c1ccccc1)C1CCCC1` (centres undefined), the activity change is inactive: 2.68%. The figure for `Cc1c(NP(C)(=O)Oc2ccc(C(C)C)cc2)c(=O)n(-c2ccccc2)n1C` (centres undefined) is inactive: -0.405%. For the molecule `Nc1cc(N)c2nonc2c1[N+](=O)[O-]`, the activity change is inactive: -22.2%.

Take `CC(C)CC(=O)NC(Sc1ccc(Cl)cc1)C(Cl)(Cl)Cl` (centres undefined): the activity change was inactive: 10.4%. In the case of `O=[N+]([O-])c1cc([N+](=O)[O-])c(Nc2ccccn2)c([N+](=O)[O-])c1`, the activity change was inactive: -11.5%. To `O=C(NC(Sc1ccncn1)C(Cl)(Cl)Cl)c1ccccc1` (centres undefined) belongs inactive: 5.91%; to `Oc1ccccc1CNc1ccccn1`, inactive: 2.51%. As for `COc1ccccc1OP(C)(=O)Nc1ccc(C)cc1C` (centres undefined), the activity change is inactive: 5.32%. To `CP(=O)(Nc1ccccn1)Oc1ccccc1` (centres undefined) belongs inactive: 8.75%; to `CCc1ccc(OP(C)(=O)O)cc1`, inactive: 3.08%.

Consider `O=[N+]([O-])C1C(O)C(O)C([N+](=O)[O-])C(O)C1O` (centres undefined), for which the activity change is inactive: -2.54%. Turning to `COc1ccc(C2=NCC(CBr)S2)cc1` (centres undefined), the activity change was inactive: 1.61%. To `COc1ccc(OP(C)(=O)Nc2ccc(Br)cc2)cc1` (centres undefined) belongs inactive: 1.26%.
